Earlier results on one molecule are cited in patent US20090264855A1.

This is a selection: effects in other tests are not listed, and their absence says nothing.

For this series the following is noted: simple diffusion, citrate buffer at pH 5; cited from earlier work.

For the molecule `CCC(=O)N(c1ccccc1)C1(COC)CCN(CCc2cccs2)CC1`, the plasma concentration result is “did not produce any detectable plasma concentration”.
